In patent US20080057071A1, “Use Of Hedgehog Pathway Inhibitors In Small-Cell Lung Cancer” (priority 2003, published 2008):

Tests used:
[1] = system: nine cancer cell lines; details: concentrations up to 10 μM, FIG. 5b
Procedure: MTT assays were performed as described (Sriuranpong (2002), supra).

[2] = system: NCI-H157 NSCLC cells; assay: Cell growth of NCI-H157 NSCLC cells (MTT assay); type: cell-based, human; details: 5 days, FIG. 3c
Procedure: (§1) Cyclopamine was obtained from Toronto Research Chemicals. […] MTT assays were performed as described (Sriuranpong (2002), supra).

[3] = system: NCI-H417 xenografts; details: NCI-H417 SCLC; nude mice; subcutaneous 25 mg^−1 kg^−day^−1; data not shown
[4] = system: NCI-H249 SCLC cells; assay: Cell growth of NCI-H249 SCLC cells (MTT assay); type: cell-based, human; details: 5 days, FIG. 3b
Procedure: as §1

[5] = system: NCI-H249 xenografts; details: NCI-H249 SCLC; nude mice; subcutaneous 25 mg^−1 kg^−day^−1; 10 days; FIG. 4c
[6] = system: NCI-H1618 xenografts; details: NCI-H1618 SCLC; nude mice; subcutaneous 25 mg^−1 kg^−day^−1; data not shown
[7] = system: A549 NSCLC cells; details: nude mice, subcutaneous 25 mg^−1 kg^−day^−1, FIG. 4d
[8] = system: HCT-116 colon cancer xenografts; details: nude mice, subcutaneous 25 mg^−1 kg^−day^−1, data not shown

## CC1=C2C[C@H]3[C@@H](CC=C4C[C@@H](O)CC[C@@]43C)[C@@H]2CC[C@]12O[C@@H]1C[C@H](C)CN[C@H]1[C@H]2C [cyclopamine]
[1]
  growth response of cancer cell lines: growth inhibition only in SCLC cells that expressed both Shh and its transcriptional effector GLI-1
[2]
  cell growth after compound treatment: None of KAAD-cyclopamine, cyclopamine or tomatidine was able to affect growth
[3]
  xenograft tumor growth: Growth inhibition
[4]
  cell growth after compound treatment: significant growth inhibition
[5]
  xenograft tumor growth: Growth inhibition
[6]
  xenograft tumor growth: Growth inhibition
[7]
  xenograft tumor growth: No effect
[8]
  xenograft tumor growth: No effect
